Test results taken from patent EP1903056A2, “HLA-A1, -A2 -A3, -A24, -B7, and -B44 tumor associated antigen peptides and compositions” (priority 2002, dated 2004).
Where two headings read alike, the source gives them in different places.

Experiments:
B*4501 = B*4501 (Homo sapiens, UniProt P01889, A329T/A65T/A93T/A95T/C349S/D138N/D201E/D98Y/E176V/E187L/E204Q/E69K/H137Y/K202T/L119W/N87E/Q56L/Q94N/R155S/R180D/S121R/S35A/S48T/V127L/V306I/V36M/W191S/Y140L/Y33H/Y91S); test: B44 supertype peptide binding, B*4501
B*4002 (B61) = B*4002 (B61) (Homo sapiens, UniProt P01889, A65T/A93T/A95T/D138N/D201E/D98Y/E176V/E204Q/E69K/K202T/N87E/Q56L/Q94N/R180L/S48T/Y33H/Y91S); test: B44 supertype peptide binding, B*4002; settings: read-out: B* 4002
[1] = tested on: B44 supertype (B*1801, B*4001, B*4002, B*4402, B*4403, B*4501); test: B44 supertype cross-binding (degeneracy, number of alleles bound); design: species or system human; settings: number of the six B44 alleles bound
B*4402 = B*4402 (Homo sapiens, UniProt P01889, A223V/A65T/A93T/A95T/D201E/D98Y/E176V/E187L/E204Q/E69K/G107R/H137Y/K202T/L105A/L119I/N104T/N87E/Q56L/Q94N/R106L/R155S/R180D/S101N/S121R/S35A/S48T/T118I/V36M/W191S/Y140D/Y91S); test: B44 supertype peptide binding, B*4402
B*4001(B60) = B*4001(B60) (Homo sapiens, UniProt P01889, A65T/A93T/A95T/D138N/D98Y/E176V/E69K/N87E/Q56L/Q94N/R180L/S121R/S35A/S48T/T167S/V36M/W171L/Y33H/Y91S); test: B44 supertype peptide binding, B*4001
B*1801 = B*1801 (Homo sapiens, UniProt P01889, A329T/A93T/A95T/C349S/D201E/D54G/D98Y/E176V/E187T/E204Q/E69T/K202T/Q94N/R155S/R180L/S121R/V306I/Y140S/Y195H/Y33H/Y91S); test: B44 supertype peptide binding, B*1801; settings: Table 29: MAGE2-derived B44 peptides
[2] = Table 29: MAGE2-derived B44 peptides, read-out: B* 4501
[3] = Table 29: MAGE2-derived B44 peptides
[4] = Table 28: p53-derived B44 peptides, read-out: B* 4402
[5] = Table 28: p53-derived B44 peptides
[6] = Table 28: p53-derived B44 peptides, read-out: B* 4501
[7] = Table 29: MAGE2-derived B44 peptides, read-out: B* 4402
[8] = Table 29: MAGE2-derived B44 peptides, read-out: B* 4001

CSCC[C@H](NC(=O)[C@H](CO)NC(=O)[C@H](CC(C)C)NC(=O)[C@H](CCC(=O)O)NC(=O)[C@H](CCC(=O)O)NC(=O)[C@@H](N)Cc1c[nH]c2ccccc12)C(=O)N[C@@H](CC(C)C)C(=O)N[C@@H](CCC(=O)O)C(=O)N[C@H](C(=O)N[C@@H](Cc1ccccc1)C(=O)O)C(C)C
IC50 (B*4501; [2]): 290 nM | IC50 (B*4002 (B61); [3]): 30 nM | Degeneracy [1, 3]: 6

CSCC[C@H](NC(=O)[C@H](CCCNC(=N)N)NC(=O)[C@@H]1CCCN1C(=O)[C@H](C)NC(=O)[C@H](CCC(=O)O)NC(=O)[C@@H](N)CC(=O)O)C(=O)N1CCC[C@H]1C(=O)N[C@@H](CCC(=O)O)C(=O)N[C@@H](C)C(=O)O [compound 601]
IC50 (B*4402; [4]): 6450 nM | IC50 (B*4002 (B61); [5]): 4580 nM | Degeneracy [1, 5]: 4

CC(C)[C@H](NC(=O)[C@H](CCCNC(=N)N)NC(=O)[C@@H](NC(=O)[C@H](CCC(=O)O)NC(=O)[C@@H](N)Cc1ccccc1)C(C)C)C(=O)N[C@@H](CS)C(=O)N[C@@H](C)C(=O)N[C@@H](CS)C(=O)N1CCC[C@H]1C(=O)NCC(=O)O [compound 604]
IC50 (B*4501): 1870 nM | IC50 (B*4001(B60)): 2040 nM | Degeneracy [1, 5]: 4

CC(C)C[C@H](NC(=O)[C@H](CC(C)C)NC(=O)[C@H](CC(N)=O)NC(=O)CNC(=O)[C@H](CO)NC(=O)[C@H](CO)NC(=O)[C@H](CC(=O)O)NC(=O)[C@H](CCC(=O)O)NC(=O)[C@@H](N)CC(C)C)C(=O)O [compound 617]
IC50 (B*4501; [6]): > 10000 nM | IC50 (B*4402; [4]): 1870 nM | IC50 (B*4002 (B61); [5]): 2770 nM | Degeneracy [1, 5]: 2

CSCC[C@H](NC(=O)[C@H](CCC(=O)O)NC(=O)[C@H](Cc1ccccc1)NC(=O)[C@H](CCCNC(=N)N)NC(=O)[C@H](CCC(=O)O)NC(=O)[C@@H](N)CCCNC(=N)N)C(=O)N[C@@H](Cc1ccccc1)C(=O)O [compound 619]
IC50 (B*4501): > 10000 nM | IC50 (B*4402): > 10000 nM | IC50 (B*4002 (B61); [5]): 1910 nM | Degeneracy [1, 5]: 2

CC(C)C[C@H](NC(=O)[C@H](CCC(=O)O)NC(=O)[C@@H](N)CC(C)C)C(=O)N[C@@H](CCCCN)C(=O)N[C@@H](CC(=O)O)C(=O)N[C@@H](C)C(=O)N[C@@H](CCC(N)=O)C(=O)N[C@@H](C)C(=O)NCC(=O)O [compound 620]
IC50 (B*4501; [6]): 1990 nM | IC50 (B*4402; [4]): 5130 nM | IC50 (B*4002 (B61); [5]): 3660 nM | IC50 (B*4001(B60); Table 28: p53-derived B44 peptides, read-out: B* 4001): 18700 nM | Degeneracy [1, 5]: 2

CC(C)C[C@H](NC(=O)[C@@H]1CCCN1C(=O)[C@H](CO)NC(=O)[C@H](CC(C)C)NC(=O)[C@@H](NC(=O)[C@H](CC(N)=O)NC(=O)[C@H](CC(N)=O)NC(=O)[C@H](CCC(=O)O)NC(=O)[C@@H]1CCCN1)C(C)C)C(=O)O [compound 625]
IC50 (B*4501; [6]): > 10000 nM | Degeneracy [1, 5]: 1

CC(C)C[C@H](NC(=O)[C@H](CC(N)=O)NC(=O)CNC(=O)[C@H](CCC(=O)O)NC(=O)[C@@H](N)C(C)C)C(=O)N[C@@H](CCCNC(=N)N)C(=O)N[C@H](C(=O)N[C@@H](CCC(=O)O)C(=O)N[C@@H](Cc1ccc(O)cc1)C(=O)O)C(C)C [compound 627]
IC50 (B*4501; [6]): > 10000 nM | IC50 (B*4002 (B61); [5]): > 10000 nM | Degeneracy [1, 5]: 1

CC[C@H](C)[C@H](NC(=O)[C@H](Cc1ccc(O)cc1)NC(=O)[C@H](CC(C)C)NC(=O)[C@H](Cc1c[nH]cn1)NC(=O)[C@H](CO)NC(=O)[C@@H](NC(=O)[C@@H]1CCCN1C(=O)[C@@H](NC(=O)[C@@H](NC(=O)[C@H](CCC(=O)O)NC(=O)[C@@H](N)C(C)C)C(C)C)C(C)C)[C@@H](C)CC)C(=O)O [compound 661]
IC50 (B*4402; [7]): 335 nM | IC50 (B*4002 (B61); [3]): 146 nM | Degeneracy [1, 3]: 5

CC[C@H](C)[C@H](N)C(=O)N[C@@H](CCC(=O)O)C(=O)N[C@H](C(=O)N[C@@H](CO)C(=O)N[C@@H](Cc1ccc(O)cc1)C(=O)N[C@H](C(=O)N[C@@H](CCCCN)C(=O)N[C@H](C(=O)N[C@@H](CC(C)C)C(=O)O)C(C)C)C(C)C)[C@@H](C)O [compound 667]
IC50 (B*4501; [2]): 11900 nM | Degeneracy [1, 3]: 5

CC(C)C[C@H](NC(=O)CNC(=O)[C@H](CC(C)C)NC(=O)[C@H](C)NC(=O)[C@H](CCC(=O)O)NC(=O)CNC(=O)[C@H](CCCNC(=N)N)NC(=O)[C@H](C)NC(=O)[C@H](CCC(=O)O)NC(=O)[C@@H](N)CC(C)C)C(=O)O [compound 669]
IC50 (B*4501; [2]): 3050 nM | IC50 (B*4402; [7]): 2280 nM | IC50 (B*4002 (B61); [3]): 277 nM | IC50 (B*4001(B60); [8]): 184 nM | Degeneracy [1, 3]: 4

CSCC[C@H](NC(=O)[C@H](CCC(=O)O)NC(=O)[C@H](C)NC(=O)[C@H](CCCCN)NC(=O)[C@@H](NC(=O)[C@@H](NC(=O)[C@@H]1CCCN1C(=O)[C@H](CCC(=O)O)NC(=O)[C@@H](N)CCCNC(=N)N)C(C)C)[C@@H](C)O)C(=O)N[C@@H](CC(C)C)C(=O)O [compound 674]
IC50 (B*4501; [2]): 917 nM | IC50 (B*4402; [7]): 763 nM | IC50 (B*4002 (B61); [3]): 264 nM | Degeneracy [1, 3]: 4

CC[C@H](C)[C@H](NC(=O)[C@H](Cc1ccc(O)cc1)NC(=O)[C@H](CC(C)C)NC(=O)[C@H](Cc1c[nH]cn1)NC(=O)[C@H](CO)NC(=O)[C@@H](NC(=O)[C@@H]1CCCN1C(=O)[C@@H](NC(=O)[C@@H](NC(=O)[C@H](CCC(=O)O)NC(=O)[C@@H](N)C(C)C)C(C)C)C(C)C)[C@@H](C)CC)C(=O)N[C@@H](CC(C)C)C(=O)O [compound 678]
IC50 (B*4402; [7]): 935 nM | Degeneracy [1, 3]: 4 | IC50 (B*1801): 191 nM

CC[C@H](C)[C@H](NC(=O)[C@H](Cc1ccc(O)cc1)NC(=O)[C@H](CC(C)C)NC(=O)[C@H](Cc1c[nH]cn1)NC(=O)[C@H](CO)NC(=O)[C@@H](NC(=O)[C@@H]1CCCN1C(=O)[C@@H](NC(=O)[C@@H](NC(=O)[C@H](CCC(=O)O)NC(=O)[C@@H](N)C(C)C)C(C)C)C(C)C)[C@@H](C)CC)C(=O)N[C@@H](CC(C)C)C(=O)N[C@H](C(=O)O)C(C)C [compound 679]
IC50 (B*4501; [2]): 839 nM | IC50 (B*4402; [7]): 562 nM | IC50 (B*4001(B60); [8]): 373 nM | Degeneracy [1, 3]: 4

CSCC[C@H](NC(=O)[C@H](CCCNC(=N)N)NC(=O)[C@@H]1CCCN1C(=O)CNC(=O)[C@H](CCC(=O)O)NC(=O)[C@H](CCC(=O)O)NC(=O)[C@H](CCC(=O)O)NC(=O)[C@@H](N)CCC(N)=O)C(=O)O [compound 687]
IC50 (B*4501; [2]): 6730 nM | Degeneracy [1, 3]: 3

C[C@H](NC(=O)[C@@H](NC(=O)[C@H](CCC(N)=O)NC(=O)[C@H](CCC(N)=O)NC(=O)[C@H](CCC(=O)O)NC(=O)[C@@H](N)CCC(=O)O)[C@@H](C)O)C(=O)N[C@@H](CO)C(=O)N[C@@H](CO)C(=O)N[C@@H](CO)C(=O)N[C@@H](CO)C(=O)N[C@H](C(=O)O)[C@@H](C)O [compound 706]
IC50 (B*4002 (B61); [3]): > 10000 nM | Degeneracy [1, 3]: 1

CSCC[C@H](NC(=O)[C@H](CCCNC(=N)N)NC(=O)[C@@H]1CCCN1C(=O)CNC(=O)[C@H](CCC(=O)O)NC(=O)[C@H](CCC(=O)O)NC(=O)[C@@H](N)CCC(=O)O)C(=O)N[C@@H](Cc1ccccc1)C(=O)O [compound 708]
IC50 (B*4501; [2]): 943 nM | IC50 (B*4402; [7]): 2410 nM | IC50 (B*4002 (B61); [3]): > 10000 nM | Degeneracy [1, 3]: 1

CC[C@H](C)[C@H](NC(=O)[C@H](CCCCN)NC(=O)[C@H](CCC(=O)O)NC(=O)[C@H](CCC(=O)O)NC(=O)[C@@H]1CCCN1)C(=O)N[C@@H](Cc1c[nH]c2ccccc12)C(=O)N[C@@H](CCC(=O)O)C(=O)N[C@@H](CCC(=O)O)C(=O)N[C@@H](CC(C)C)C(=O)N[C@@H](CO)C(=O)N[C@@H](CCSC)C(=O)O [compound 715]
IC50 (B*4402; [7]): > 10000 nM | IC50 (B*4001(B60); [8]): > 10000 nM | Degeneracy [1, 3]: 0

CSCC[C@H](NC(=O)[C@H](CO)NC(=O)[C@H](CC(C)C)NC(=O)[C@H](CCC(=O)O)NC(=O)[C@H](CCC(=O)O)NC(=O)[C@@H](N)Cc1c[nH]c2ccccc12)C(=O)N[C@@H](CC(C)C)C(=O)O [compound 716]
IC50 (B*4501; [2]): > 10000 nM | IC50 (B*4402; [7]): > 10000 nM | IC50 (B*4002 (B61); [3]): 740 nM | IC50 (B*4001(B60); [8]): 781 nM | Degeneracy [1, 3]: 0
